# Experimental data as given in ChEMBL document CHEMBL2057164, “Head-to-head prenyl tranferases: anti-infective drug targets” (J Med Chem, 2012).
# Target: T1, 4,4'-diapophytoene synthase (Staphylococcus aureus, UniProt A9JQL9)
# T1 sequence (A9JQL9 whole entry): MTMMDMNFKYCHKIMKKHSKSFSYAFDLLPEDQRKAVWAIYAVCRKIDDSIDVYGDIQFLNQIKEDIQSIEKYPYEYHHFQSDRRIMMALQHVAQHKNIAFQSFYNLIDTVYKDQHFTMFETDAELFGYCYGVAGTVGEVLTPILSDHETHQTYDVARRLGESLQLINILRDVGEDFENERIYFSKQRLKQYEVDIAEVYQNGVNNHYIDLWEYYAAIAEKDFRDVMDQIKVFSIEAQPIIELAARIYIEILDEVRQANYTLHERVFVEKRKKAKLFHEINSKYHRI
# Assay: Inhibition of Staphylococcus aureus ATCC 27659 dehydrosqualene synthase expressed in Escherichia coli BL21(DE3) after 30 mins by spectrophotometric analysis
smiles,measurement,value
N#CSCCOc1ccc(Oc2ccccc2)cc1,Ki,1.5 µM
